The text below walks through data of PubChem BioAssay AID602346 (Broad Institute, 2012).

In general, inhibition refers to the drop in the measured response relative to a control, in per cent.

This is a selection; strong and weak results do not stand in their true shares. Some salts or complexes appear as unconnected parts, following the source record. Activity calls are given as the source filed them. Rule as the data show it: active = inhibition above about 50% (passing the limit was not always enough); inconclusive = no clear call, values can overlap the other calls; inactive = below about 31%.

This test is described as follows: blockers of Vif multimerization in cells – imaging, HEK293T, single point, primary screen (AID 602346). Particulars: Vif self-association by quenched fluorescence, 24 h, at 7.49 µM, active compounds read high.
`CP(=O)(Nc1ccc(Cl)cc1)Oc1ccc(F)cc1` (stereo not given): the inhibition is inactive: -4.57%.
In the case of `CN(C)C(=O)c1c([N+](=O)[O-])cc([N+](=O)[O-])cc1[N+](=O)[O-]` it was inactive: -5.23%.
On to `CCN(CC)CC(O)COC(=O)C(O)(c1ccccc1)C1CCCCC1` (stereo not given), for which the inhibition is inactive: 2.19%.
In the case of `COc1ccc(OP(C)(=O)Nc2ccc(Br)cc2)cc1` (stereo not given) it was inactive: -6.13%; in that of `O=C(OCCCN1CCCC1)C(O)(c1ccccc1)C1CCCCC1` (stereo not given), inactive: -0.27%.
The figure for `CP(=O)(Oc1ccccc1)N1CCOC1=O` (stereo not given) is inactive: -8.53%; for `CCc1ccc(OP(C)(=O)Nc2cccnc2)cc1` (stereo not given) it is inactive: 1.49%; for `CCOC(=O)c1ccc(NP(C)(=O)Oc2ccc(Cl)cc2)cc1` (stereo not given) it is inactive: -2.76%.
In the case of `CP(=O)(OC12CC3CC(CC(C3)C1)C2)OC12CC3CC(CC(C3)C1)C2` it was inactive: 6.42%; in that of `O=[N+]([O-])c1ccc(OP2(=O)COCCO2)cc1` (stereo not given), inactive: 1.39%; in that of `Cc1cc(-c2cccc3ccccc23)c(C)cn1.O=[N+]([O-])c1cc([N+](=O)[O-])c(O)c([N+](=O)[O-])c1`, inactive: 10.5%.
As for `O=[N+]([O-])c1cc([N+](=O)[O-])c(NCC2CCS(=O)(=O)C2)c([N+](=O)[O-])c1` (stereo not given), the inhibition is inactive: 1.4%.
In the case of `Cc1c(C(c2ccc3c(c2)OCO3)c2c(C)n(C)n(-c3ccccc3)c2=O)c(=O)n(-c2ccccc2)n1C.O=[N+]([O-])c1cc([N+](=O)[O-])c(O)c([N+](=O)[O-])c1` it was inactive: -4.97%; in that of `COc1ccc(OP(C)(=O)Nc2cccc(Br)c2)cc1` (stereo not given), inactive: 14.4%.
In the case of `CN(C)CCOC(=O)C(O)(c1ccccc1)C1CCCCC1` (stereo not given) it was inactive: 18.5%; in that of `COc1ccc(NP(C)(=O)Oc2ccccc2OC)cc1` (stereo not given), inactive: 5.76%; in that of `Cc1ccccc1NP(C)(=O)Nc1ccccc1C`, inactive: 17.6%.
`CP(=O)(Nc1ccc(SC(F)(F)F)cc1)Oc1ccc(F)cc1` (stereo not given): the inhibition is inactive: -2.39%.
In the case of `O=C(OC1CN2CCC1CC2)c1ccc([N+](=O)[O-])cc1` (stereo not given), the inhibition was inactive: 24.4%.
In the case of `O=C(OCCN1CCN(CCOCc2ccccc2)CC1)C(O)(c1ccccc1)c1ccccc1` it was inactive: -3.79%; in that of `COc1ccc2c(c1O)-c1c(O)c(OC)cc3c1[C@H](C2)[N+](C)(C)CC3.O=[N+]([O-])c1cc([N+](=O)[O-])c([O-])c([N+](=O)[O-])c1[O-]`, inactive: -5.44%; in that of `O=[N+]([O-])c1cc([N+](=O)[O-])c(Nc2ccc(Cl)cc2)c([N+](=O)[O-])c1`, inactive: -10.8%.
The figure for `CP(=O)(Nc1ccccc1F)Oc1ccccc1` (stereo not given) is inactive: 7.47%; for `CC(C)c1ccc(OP(C)(=O)Nc2ccc(SC(F)(F)F)cc2)cc1` (stereo not given) it is inactive: -6.99%.
The figure for `Cc1c([N+](=O)[O-])cc([N+](=O)[O-])c(Br)c1[N+](=O)[O-]` is inactive: 1.71%; for `CP(=O)(Nc1ccccc1)Oc1ccc(F)cc1` (stereo not given) it is inactive: 4.26%.
For `O=[N+]([O-])c1cc([N+](=O)[O-])c(OC2CCCCC2O)c([N+](=O)[O-])c1` (stereo not given), the inhibition was inactive: -10.2%.
The figure for `CCCCCOc1ccc(NP(C)(=O)Oc2ccc(Cl)cc2Cl)cc1` (stereo not given) is inactive: 9.01%; for `CCOC(=O)c1ccc(NP(C)(=O)Oc2ccc(F)cc2)cc1` (stereo not given) it is inactive: -2.5%; for `COc1ccc(OP(C)(=O)Nc2ccc(SC(F)(F)F)cc2)cc1` (stereo not given) it is inactive: -2.1%.
